In patent publication US7723122:

Biological target: protein A (UniProt P38507)
Assay: SPR, BIACORE 3000, protein A immobilised on CM5 chip, 10 ug/ml IgG in flow at 20 ul/min

koff: 0.00056 s⁻¹
kon: 140000 M⁻¹ s⁻¹
Substance: anti-BSA mouse IgG (molecular weight: 150,000) (antibody)
